## Yeast mating assay B: variants of the scFv Ab-14

Source: Li et al. 2023 (doi:10.1038/s41467-023-39022-2), MIT Lincoln Laboratory and A-Alpha Bio; data file from the FLAb repository.

Binding partner: SARS-CoV-2 spike HR2 peptide, sequence PDVDLGDISGINAS.

Each scFv is VH, the linker GGGGSGGGGSGGGGS, VL, as in the parent Ab-14, and differs from it in the CDRs of the heavy chain only.
VH: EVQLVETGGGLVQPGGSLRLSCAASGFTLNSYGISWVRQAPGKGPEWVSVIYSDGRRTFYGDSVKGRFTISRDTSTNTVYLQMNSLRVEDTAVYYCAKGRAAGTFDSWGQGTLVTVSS
VL: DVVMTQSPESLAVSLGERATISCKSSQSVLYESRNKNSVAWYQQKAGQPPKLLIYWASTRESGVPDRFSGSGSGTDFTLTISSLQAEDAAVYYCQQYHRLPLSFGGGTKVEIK

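Designed CDR sequences, proposed from the first random library and measured here. Group labels follow the data file (Ctrl: baseline library sampled from a position-specific scoring matrix, with some repeated check sequences; En: ensemble of fine-tuned language models; GP: Gaussian process model; GPLM: also part of the Gaussian process libraries; HC: hill climbing; Gen: genetic algorithm; Gibbs: Gibbs sampling; a sequence that several methods proposed may carry one label only). In AlphaSeq, yeast of one mating type display the scFv and yeast of the other type display the target. Mating (16 h, 30 °C) was followed by selection of diploids and sequencing of their barcodes. Each replicate has its own calibration line, from reference interactions of the BCL2 family. Mating was done six times.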

Each variant is given by its three heavy chain CDRs, as the data file delimits them; those of the parent are GFTLNSYGIS, VIYSDGRRTFYGDSVK, GRAAGTFDS. Numbers give log10(Kd / nM), so 0 is 1 nM and 3 is 1 µM. Smaller is tighter. "ND" marks a missing value. The strain was present, yet no cells mated with the target were sequenced in that replicate, which points to weak or no binding. A sequence measured in both rounds can read differently, since the two assays cover different ranges. The authors averaged sequences with at least three values out of six and counted those with two or fewer as poor binders. Nonspecific signal, from three strains lacking the peptide, appeared in 1% of pairings of all heavy chain designs, centred on 2.08 (5% of these signals below 0.84); values are not corrected for it. Also given: how often the same scFv was detected with the empty control strains, with their mean in brackets.

replicates, log10 nM | signal with controls | CDR-H1 | CDR-H2 | CDR-H3 | group
ND / ND / ND / ND / ND / ND | 0/18 | GFTLQSYGIS | VIYSDGRRTFYQDSVK | GRAAGTFDS | Ctrl
0.47 / -0.31 / -0.29 / -0.55 / -0.24 / 0.06 | 0/18 | GFDLNEYGIS | VIYADGVRTSYADSVK | GNQAGTFDV | En_Gen
-0.96 / 0.82 / -1.22 / -0.40 / -1.13 / -0.96 | 0/18 | GFDLNEYGIS | VIYADGLRTAYADSVK | GNQAGTFDV | En_Gen
ND / ND / ND / ND / ND / ND | 0/18 | GFGLDEYGIS | VIYADGSRVFYADTVK | GLLGKLTVV | En_Gibbs
0.35 / -0.19 / 0.43 / 0.86 / 0.02 / 0.26 | 0/18 | GFDLNEYGIS | VIYADGRRTYYADSVK | GENAGTFDQ | En_HC
-0.20 / 0.98 / 0.31 / 0.51 / 0.21 / -0.03 | 0/18 | GFDLNEYGIS | VIYADGRRTFYADSVK | GEAAGTFDE | En_HC
ND / ND / ND / 3.42 / ND / ND | 0/18 | GETLNSYGIS | VIYSDGRRTFYGDPVK | GRAAGTFDS | Ctrl
ND / ND / ND / ND / ND / ND | 0/18 | GFDLNEYGIS | VIYADGRRTFYSDSVK | GENAGFFDA | En_HC
ND / ND / ND / ND / ND / 3.07 | 0/18 | GFSLDEYGIS | VIYADGQRSAYSENVK | GQHGGMTVS | En_Gibbs
1.48 / 0.94 / 1.46 / 2.11 / 2.52 / 1.82 | 0/18 | GFTLNSYGIS | VIYSDGRRTFYDDEVK | GQLAGTFDS | GPLM_HC
ND / 1.14 / 1.96 / 1.02 / 1.02 / 1.60 | 0/18 | GFNLESYGIS | VIYSDGRRTFYGDSVK | GRAAGTFDS | Ctrl
0.28 / 0.44 / 0.47 / 0.10 / 0.03 / 1.13 | 1/18 (1.25) | GFDLNEYGIS | VIYADGMRTAYADSVK | GNVGGTFDV | En_Gen
ND / ND / ND / ND / ND / ND | 0/18 | GFTLNSYGIS | VIYSDGRRTYYGDSVK | GYAAGTFDM | Ctrl
0.13 / -0.26 / 0.12 / -0.23 / -0.25 / -0.45 | 0/18 | GFSLNSYGIS | VIYSDGRRTAYGDNVK | GRTAGTFDS | GP_Gen
0.09 / 0.74 / 1.83 / 0.06 / 0.04 / 0.50 | 0/18 | GFTLNSYGIS | VIYSDGRRTFYSDAVK | GEAAGTFDK | GPLM_Gibbs
2.82 / ND / 1.63 / 1.30 / 1.86 / 1.86 | 1/18 (2.60) | GFTLNDYGIS | VIYSDGRRTQYMDSVK | GRAAGTFDS | GPLM_HC
0.27 / -0.78 / -0.09 / -0.59 / -0.79 / -0.27 | 0/18 | GFDLDEYGIS | VIYADGKRTFYADSVK | GQNAGTFDV | En_Gen
1.23 / 0.52 / 0.98 / 0.88 / 0.59 / 0.54 | 0/18 | GFDLNDYGIS | VIYSDGRRTMYGDSVK | GRAAGTFDS | GP_HC
-0.23 / -0.37 / -0.38 / -0.37 / -0.48 / -0.57 | 1/18 (2.15) | GFDLNEYGIS | VIYADGRRTFYSDSVK | GENAGTFDI | En_HC
-0.10 / 0.13 / 0.44 / -0.08 / 0.08 / 0.27 | 0/18 | GFTLDSYGIS | VIYADGRRTFYGDSVK | GQAAGTFSS | GP_HC
-0.32 / -0.40 / -0.50 / -0.49 / -0.41 / -0.25 | 0/18 | GFDLNEYGIS | VIYADGQRTFYSDSVK | GQLAGTFDS | En_HC
0.42 / 0.69 / -0.08 / 0.80 / 0.38 / 0.01 | 1/18 (1.31) | GFTLNDYGIS | VIYSDGRRTQYADSVK | GRAAGTFDS | En_HC
ND / ND / ND / ND / ND / ND | 0/18 | GFNLNSYGIS | VIYSDGRRTFYGDFVK | GRAAITFDS | Ctrl
ND / ND / ND / ND / ND / ND | 0/18 | GFTLNSYGIS | VIYSDGRRTEYGDSVK | GKAAGTFDG | Ctrl
ND / ND / ND / ND / ND / ND | 0/18 | GNDLNEYGIS | VIYADGMRMAYLNDVK | GQKGGLFFM | En_Gibbs
-0.09 / -0.08 / -0.08 / -0.26 / -0.38 / -0.30 | 0/18 | GFDLNEYGIS | VIYADGIRTAYADSVK | GQNAGTFDV | En_Gen
ND / ND / ND / ND / ND / ND | 0/18 | GFSLNSYGIS | VIYSDGKRTFYGDKVK | GRTAGTFDS | GP_Gen
-0.02 / -0.18 / -0.31 / -0.20 / 0.05 / -0.04 | 0/18 | GFSLNSYGIS | VIYSDGRRTFYADSVK | GWAAGTFDS | GPLM_Gen
ND / ND / ND / ND / ND / ND | 0/18 | GFMLNSYGIS | VIYSDGRRTFYEDSQK | GRAAGTFDS | Ctrl
ND / ND / ND / ND / 0.58 / ND | 0/18 | GFTLNEYGIS | VIYADGRRTFYGDSVK | GRAAGTFDQ | GP_HC
ND / ND / ND / 1.33 / ND / ND | 0/18 | GFTLNSYGIS | VIYSDGRRTFYVDSVK | GRAAGTFDS | Ctrl
-0.17 / -0.51 / -0.25 / -0.22 / -0.31 / 0.15 | 0/18 | GFDLDEYGIS | VIYADGRRTAYADSVK | GTNAGTFDS | En_HC
-0.38 / -0.58 / -0.04 / -1.10 / -0.19 / -1.02 | 1/18 (0.69) | GFDLNEYGIS | VIYADGMRTAYADAVK | GNVAGTFDV | En_Gen
ND / ND / ND / ND / ND / ND | 0/18 | GFTLNSYGIS | VIYSDGRRAFYGDSVK | GEAAWTFDL | Ctrl
-0.02 / -0.53 / -0.51 / -0.66 / -0.08 / 0.20 | 0/18 | GFDLNEYGIS | VIYADGRRTAYIDSVK | GEVAGSFDS | En_HC
-0.05 / -0.58 / -0.70 / 0.06 / 0.42 / 0.20 | 1/18 (0.62) | GFDLNEYGIS | VIYADGMRTAYSDNVK | GNTAGTFDV | En_Gen
ND / ND / 0.94 / ND / ND / ND | 0/18 | KFTLNSYGIS | VIYSDGRRTFYGDSVK | GKAAGTFFS | Ctrl
ND / 2.23 / 1.23 / ND / 3.76 / ND | 0/18 | DFNLNEYGIS | VIYADGVRASMLDKVK | GQISGTFDT | En_Gibbs
ND / ND / ND / ND / ND / ND | 0/18 | GFSLNDYGIS | VIYSDGRRTFYGDEVK | GRTAGTFDS | GPLM_Gen
0.50 / 0.30 / 0.26 / 0.48 / 0.75 / 0.31 | 2/18 (2.40) | GFSLNSYGIS | VIYSDGRRTFYTDSVK | GEQAGTFDS | GPLM_Gen
-0.21 / -0.26 / -0.70 / -0.32 / -0.62 / -0.65 | 0/18 | GFGLNSYGIS | VIYSDGRRTAYGDSVK | GRTAGTFDS | GP_Gen
ND / ND / ND / ND / ND / ND | 0/18 | GFHLNSYGIS | VIYSDGKRTFYGDSVK | GRQAGTFDS | GP_Gibbs
1.20 / 0.68 / 1.39 / 1.36 / 0.50 / 1.23 | 1/18 (2.17) | GFSLNSYGIS | VIYSDGRRTFYSDRVK | GRTAGTFDS | GPLM_Gen

The first 5 variants above that were never detected:

CDR-H1 | CDR-H2 | CDR-H3 | group | replicates, log10 nM | signal with controls
GFTLQSYGIS | VIYSDGRRTFYQDSVK | GRAAGTFDS | Ctrl | ND / ND / ND / ND / ND / ND | 0/18
GFGLDEYGIS | VIYADGSRVFYADTVK | GLLGKLTVV | En_Gibbs | ND / ND / ND / ND / ND / ND | 0/18
GFDLNEYGIS | VIYADGRRTFYSDSVK | GENAGFFDA | En_HC | ND / ND / ND / ND / ND / ND | 0/18
GFTLNSYGIS | VIYSDGRRTYYGDSVK | GYAAGTFDM | Ctrl | ND / ND / ND / ND / ND / ND | 0/18
GFNLNSYGIS | VIYSDGRRTFYGDFVK | GRAAITFDS | Ctrl | ND / ND / ND / ND / ND / ND | 0/18